The source of these data is PMC8252719, “Macrocyclic FKBP51 Ligands Define a Transient Binding Mode with Enhanced Selectivity” (Angewandte Chemie (International Ed. in English), 2021).

The experiment concerns the target T1, FKBP51FK1 (Homo sapiens, UniProt Q13451).
T1 sequence (Q13451 42-130 limits assumed): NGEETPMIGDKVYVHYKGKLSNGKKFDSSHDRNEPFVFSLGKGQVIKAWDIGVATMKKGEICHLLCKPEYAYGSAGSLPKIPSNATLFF
In words: competitive fluorescence polarization assay, FKBP51FK1. In kind it is binding. To be noted: ± = standard error from three independent measurements [b] or error from two independent measurements [d], read-out: FKBP51FK1 K i. As for the experimental part:
Table S1. Ki values were determined by a competitive fluoresc ence polarization assay.
4.1 Binding curves of 13a, c and d […]
Background: In fluorescence polarisation assays a small probe gives low polarisation when free and higher when bound to something large.

For `COc1ccc(CC[C@H]2OC(=O)[C@@H]3CCCCN3C(=O)[C@@H](C3CCCCC3)NC(=O)[C@H](C)NC(=O)COc3cccc2c3)cc1OC` [13 j, (2R,5S,12R,15S)-12-cyclohexyl-2-[2-(3,4-dimethoxyphenyl)ethyl]-15-methyl-3,19-dioxa-10,13,16-triazatricyclo[18.3.1.0⁵,¹⁰]tetracosa-1(24),20,22-triene-4,11,14,17-tetrone], the Ki stood at 17 µM.

Take `COc1ccc(CC[C@H]2OC(=O)[C@@H]3CCCCN3C(=O)[C@@H](C3CCCCC3)NC(=O)[C@@H]3CCCN3C(=O)COc3cccc2c3)cc1OC` [13 k, (9S,12R,19S,22R)-12-cyclohexyl-22-[2-(3,4-dimethoxyphenyl)ethyl]-2,21-dioxa-5,11,14-triazatetracyclo[21.3.1.0⁵,⁹.0¹⁴,¹⁹]heptacosa-1(26),23(27),24-triene-4,10,13,20-tetrone]: the Ki was 5.1 µM.
